Assay results reported in patent US20240207263A1, “SELECTIVE MODULATORS OF ATAXIA […] MUTATED (ATM) KINASE AND USES THEREOF” (priority 2021, published 2024).

The chains behind the UniProt entries cited, without tags or fusion partners. Where a name states a change or a piece, a line headed by the entry shows the natural chain unless it says otherwise.
UniProt Q13315: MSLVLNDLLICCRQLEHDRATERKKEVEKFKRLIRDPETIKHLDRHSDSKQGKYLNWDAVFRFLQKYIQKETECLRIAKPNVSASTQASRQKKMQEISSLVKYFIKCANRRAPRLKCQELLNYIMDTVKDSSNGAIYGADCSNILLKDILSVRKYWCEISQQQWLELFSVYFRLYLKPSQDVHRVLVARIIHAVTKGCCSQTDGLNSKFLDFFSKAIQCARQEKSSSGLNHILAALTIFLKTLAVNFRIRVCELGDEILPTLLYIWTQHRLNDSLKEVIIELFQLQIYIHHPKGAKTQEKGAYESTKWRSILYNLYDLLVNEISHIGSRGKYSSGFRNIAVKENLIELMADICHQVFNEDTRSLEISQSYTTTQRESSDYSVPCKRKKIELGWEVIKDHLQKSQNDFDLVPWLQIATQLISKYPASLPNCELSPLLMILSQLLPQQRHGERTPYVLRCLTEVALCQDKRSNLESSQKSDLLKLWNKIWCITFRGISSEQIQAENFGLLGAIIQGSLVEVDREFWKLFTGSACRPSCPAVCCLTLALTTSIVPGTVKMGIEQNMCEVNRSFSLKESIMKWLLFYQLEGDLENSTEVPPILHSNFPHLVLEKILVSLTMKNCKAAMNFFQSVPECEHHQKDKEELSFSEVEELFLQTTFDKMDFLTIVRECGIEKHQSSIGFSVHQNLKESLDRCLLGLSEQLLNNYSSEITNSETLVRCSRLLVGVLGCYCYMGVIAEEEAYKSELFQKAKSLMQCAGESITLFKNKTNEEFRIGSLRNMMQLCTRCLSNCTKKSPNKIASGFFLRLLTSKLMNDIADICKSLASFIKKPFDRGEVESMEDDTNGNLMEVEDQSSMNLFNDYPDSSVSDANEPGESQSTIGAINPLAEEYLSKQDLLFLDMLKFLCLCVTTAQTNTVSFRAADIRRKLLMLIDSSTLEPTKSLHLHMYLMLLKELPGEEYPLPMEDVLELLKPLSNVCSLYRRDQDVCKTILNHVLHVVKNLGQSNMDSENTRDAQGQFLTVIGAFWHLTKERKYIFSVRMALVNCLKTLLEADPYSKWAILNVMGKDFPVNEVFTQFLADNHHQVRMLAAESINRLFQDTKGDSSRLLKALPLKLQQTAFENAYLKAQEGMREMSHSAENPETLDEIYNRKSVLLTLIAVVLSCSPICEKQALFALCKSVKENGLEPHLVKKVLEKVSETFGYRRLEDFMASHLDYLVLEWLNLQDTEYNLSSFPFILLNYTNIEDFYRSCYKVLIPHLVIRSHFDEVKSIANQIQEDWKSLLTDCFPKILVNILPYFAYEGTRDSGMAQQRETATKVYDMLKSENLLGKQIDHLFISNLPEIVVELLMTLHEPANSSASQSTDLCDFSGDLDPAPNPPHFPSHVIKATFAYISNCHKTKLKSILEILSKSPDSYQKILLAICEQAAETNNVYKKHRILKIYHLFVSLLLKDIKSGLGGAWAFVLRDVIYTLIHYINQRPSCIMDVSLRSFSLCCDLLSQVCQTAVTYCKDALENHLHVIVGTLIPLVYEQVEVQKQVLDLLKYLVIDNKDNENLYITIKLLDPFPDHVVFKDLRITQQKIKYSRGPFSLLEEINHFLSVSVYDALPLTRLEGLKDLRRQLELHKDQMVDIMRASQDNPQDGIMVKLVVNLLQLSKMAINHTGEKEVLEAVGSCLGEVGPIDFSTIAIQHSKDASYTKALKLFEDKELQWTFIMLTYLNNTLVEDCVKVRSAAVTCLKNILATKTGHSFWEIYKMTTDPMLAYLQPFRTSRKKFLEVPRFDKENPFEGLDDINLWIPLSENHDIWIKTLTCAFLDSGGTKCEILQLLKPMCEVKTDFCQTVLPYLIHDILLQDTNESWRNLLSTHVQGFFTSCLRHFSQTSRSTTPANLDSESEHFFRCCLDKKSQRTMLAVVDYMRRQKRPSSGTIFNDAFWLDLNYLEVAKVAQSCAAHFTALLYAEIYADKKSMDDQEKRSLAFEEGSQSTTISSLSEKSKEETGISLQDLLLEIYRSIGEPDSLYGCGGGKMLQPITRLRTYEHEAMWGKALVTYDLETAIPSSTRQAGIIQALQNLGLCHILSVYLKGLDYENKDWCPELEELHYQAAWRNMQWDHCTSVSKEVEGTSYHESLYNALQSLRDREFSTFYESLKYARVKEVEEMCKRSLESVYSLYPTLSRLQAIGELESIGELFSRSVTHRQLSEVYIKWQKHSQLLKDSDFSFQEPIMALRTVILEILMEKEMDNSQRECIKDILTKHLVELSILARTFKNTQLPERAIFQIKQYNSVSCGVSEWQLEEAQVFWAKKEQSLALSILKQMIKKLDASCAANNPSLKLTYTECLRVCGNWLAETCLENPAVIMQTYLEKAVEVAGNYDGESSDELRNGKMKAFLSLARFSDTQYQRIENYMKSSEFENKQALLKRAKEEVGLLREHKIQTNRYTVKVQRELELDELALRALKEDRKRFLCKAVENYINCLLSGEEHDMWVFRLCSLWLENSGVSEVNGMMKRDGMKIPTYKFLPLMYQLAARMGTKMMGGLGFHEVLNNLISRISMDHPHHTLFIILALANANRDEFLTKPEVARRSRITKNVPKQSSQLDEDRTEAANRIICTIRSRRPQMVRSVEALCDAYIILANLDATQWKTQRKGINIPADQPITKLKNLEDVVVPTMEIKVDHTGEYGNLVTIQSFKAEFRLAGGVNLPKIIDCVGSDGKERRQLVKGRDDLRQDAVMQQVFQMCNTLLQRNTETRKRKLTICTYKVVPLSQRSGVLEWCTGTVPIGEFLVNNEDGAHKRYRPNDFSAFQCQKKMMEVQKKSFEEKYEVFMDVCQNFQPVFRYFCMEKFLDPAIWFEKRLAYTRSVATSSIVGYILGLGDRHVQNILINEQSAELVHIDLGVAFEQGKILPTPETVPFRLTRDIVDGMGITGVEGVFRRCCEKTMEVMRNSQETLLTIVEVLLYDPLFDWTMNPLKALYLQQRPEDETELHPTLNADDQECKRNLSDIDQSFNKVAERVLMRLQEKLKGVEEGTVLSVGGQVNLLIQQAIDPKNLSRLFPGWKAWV

What was measured:
ATM = ATM (Homo sapiens (Human), UniProt Q13315); experiment: biochemical
Excerpt: Assay a): ATM Biochemical Potency
Data was collected by Caliper.

[1] = system: phosp-KAP1 in MCF-7 cells; experiment: phosp-KAP1 MCF-7 cellular potency assay (Assay f); format: cell-based; settings: Homo sapiens, MCF7, etoposide
Procedure: Assay f): phosp-KAP1 MCF-7 Cellular Potency
MCF-7 cells were seeded to a 384-well cell-culture plate, 25 μl/well which were incubated at 37° C. and 5% CO2 for 24 hr. Test compounds were added to the 384-well plates. Etoposide at final concentration of 100 μM was then added to each well except Vehicle control wells, which were incubated at 37° C. and 5% CO2 for 1 hour. After medium removal, cells were fixed by the addition of 25 μl/well of 8% paraformaldehyde in PBSA and incubated for 20 minutes at room temperature. After the plates were rinsed 3 times with PBSA, 50 ul permeabilization buffer (0.1% Triton X-100 in PBS) was added and the plates were incubated for 20 minutes at room temperature. After the plates were rinsed with PBSA, block the cells by adding 50 μl of Odyssey Blocking Buffer in 384-well plate and then incubate for 1.5 hours at room temperature. Remove blocking buffer by Plate washer (BioTek ELx405 select CW). […] The plates were rinsed 5 times with PBST (0.1% Tween-20 in PBS).
• 1) Fluorescence intensity (FI) was detected for each well. • 2) % inhibition is calculated as follow: […]

[2] = biological target: ATM (phospho-ATM Ser1981) in SN38 treated HT-29 cells (Homo sapiens (Human), UniProt Q13315); experiment: cell-based
Procedure: Assay g): ATM SN-38 HT-29 Cellular Potency
SN38 causes single strand DNA breaks (SSBs) which are converted to double strand breaks (DSBs) during replication. ATM plays role of repairing DSBs. Inhibition of ATM was evaluated in SN38 treated HT-29 cells (ATCC, Cat #HTB-38) by high-Content Imaging System
The graphical views were then generated using Prism 7.0 (Graphpad).

FaDu xenograft = FaDu xenograft model, radiation combination (Assay i); format: in vivo, mouse; settings: combo with IR
Procedure: Assay i): FaDu Xenograft Model
Cell culture: FaDu tumor cells were cultured in an EMEM medium containing inactivated 10% fetal bovine serum, 100 U/ml penicillin and 100 μg/ml streptomycin in a 37° C., 5% CO2 incubator.
Inoculation and grouping: Xenografts were established by implantation of 100 μl of Fadu tumor cell suspension (5×10^6 cells/mouse) subcutaneously into the right flank of female immune-compromised BALB/c nude mice at least 6 weeks of age. Tumours were measured in two dimensions with calipers and the tumour volume was calculated using the following formula: tumor volume=(length×width^2)×0.5. When the average tumor volume reached 100 to 150 mm^3, tumour-bearing mice were randomized into treatment groups.
Treatment and tumor assessment: Animals received 3 to 6 cycles of treatment with compounds combined with radiation therapy. Each cycle included 5 consecutive treatment day plus 2 days' rest. Ionizing radiation was administered using a fractionated schedule of 2 Gy per day administered over 5 consecutive days (total radiation dose=10 Gy/cycle). Compound was given orally 10 minutes before irradiation. The tumour volume and body weight of the mice were measured twice weekly.
Statistical Analysis: The One-Way ANOVA test was used for statistical analysis of tumor volume between groups, and p<0.05 was considered as a significant difference.

Structure (SMILES)	IC50 (ATM) [nM]	IC50 [2] [nM]	IC50 (ATM; read-out: ATM IC50) [nM]	further results
C[C@@H](OCCN1CCC2(CC2)C1)c1ccc(-c2ccc3nnc4c(c3c2)n(C2CCOCC2)c(=O)n4C)cn1 [Example 102, (R)-8-(6-(1-(2-(5-azaspiro[2.4]heptan-5-yl)ethoxy)ethyl)pyridin-3-yl)-3-methyl-1-(tetrahydro-2H-pyran-4-yl)-1H-imidazo[4,5-c]cinnolin-2(3H)-one]	5.5	17		IC50 [1]: 12 nM; Inhibition (% TGI) Combo (FaDu xenograft; total IR 30 Gy (3 cycles), 20 mg/kg PO. BID): 83.5 ± 2.21 % TGI; Inhibition (% TGI) Combo (FaDu xenograft; total IR 30 Gy (3 cycles), 25 mg/kg PO. BID): 83.0 ± 3.03 % TGI; Inhibition (% TGI) Combo (FaDu xenograft; total IR 30 Gy (3 cycles), 40 mg/kg PO. BID): 93.7 ± 1.04 % TGI; Inhibition (% TGI) Combo (FaDu xenograft; total IR 30 Gy (3 cycles), 60 mg/kg PO. BID): 95.5 ± 1.63 % TGI; Inhibition (% TGI) Combo (FaDu xenograft; total IR 40 Gy (4 cycles), 50 mg/kg PO. BID): 93.4 ± 1.75 % TGI; Inhibition (% TGI) Combo (FaDu xenograft; total IR 40 Gy (4 cycles), 75 mg/kg PO. BID): 96.4 ± 0.91 % TGI
C[C@@H](OCCN1CCC(OC(F)(F)F)C1)c1ccc(-c2ccc3nnc4c(c3c2)n(C2CCOCC2)c(=O)n4C)cn1 (stereo partly drawn) [Example 106, 3-methyl-1-(tetrahydro-2H-pyran-4-yl)-8-(6-((1R)-1-(2-(3-(trifluoromethoxy)pyrrolidin-1-yl)ethoxy)ethyl)pyridin-3-yl)-1H-imidazo[4,5-c]cinnolin-2(3H)-one]			4.2	
C[C@@H](OCCN1CCC2(CC1)CC2)c1ccc(-c2ccc3nnc4c(c3c2)n(C2CCOCC2)c(=O)n4C)cn1 [Example 107, (R)-8-(6-(1-(2-(6-azaspiro[2.5]octan-6-yl)ethoxy)ethyl)pyridin-3-yl)-3-methyl-1-(tetrahydro-2H-pyran-4-yl)-1H-imidazo[4,5-c]cinnolin-2(3H)-one]		15	2.8	
C[C@@H](OCCN1CC[C@@H](S(C)(=O)=O)C1)c1ccc(-c2ccc3nnc4c(c3c2)n(C2CCOCC2)c(=O)n4C)cn1 [Example 129, 3-methyl-8-(6-((R)-1-(2-((R)-3-(methylsulfonyl)pyrrolidin-1-yl)ethoxy)ethyl)pyridin-3-yl)-1-(tetrahydro-2H-pyran-4-yl)-1H-imidazo[4,5-c]cinnolin-2(3H)-one]	75			
CC(C)n1c(=O)n(C)c2nnc3cc(F)c(-c4ccc([C@@H](C)OCCN5CCC6(CC6)C5)nc4)cc3c21 [Example 135, (R)-8-(6-(1-(2-(5-azaspiro[2.4]heptan-5-yl)ethoxy)ethyl)pyridin-3-yl)-7-fluoro-3-methyl-1-(tetrahydro-2H-pyran-4-yl)-1H-imidazo[4,5-c]cinnolin-2(3H)-one]			4.4	
C[C@@H](OCCN1CCC2(CC2)C1)c1ccc(-c2cc3c(cc2F)nnc2c3n(C3CCOCC3)c(=O)n2C)cn1 [Example 148, (R)-8-(6-(1-(2-(5-azaspiro[2.4]heptan-5-yl)ethoxy)ethyl)pyridin-3-yl)-7-fluoro-3-methyl-1-(tetrahydro-2H-pyran-4-yl)-1H-imidazo[4,5-c]cinnolin-2(3H)-one]	13			

Read-outs that look alike come from different tables or passages of the source.
